The target of this test is B1SYN (Priestia megaterium, UniProt P14779, A185T/A291V/A331V/E253G/F206C/F88A/G316S/H237Q/I175N/I264M/L354V/N71Y/P143S/R256S/R48S/S227R/T176I/V79L). Kind of test: biochemical.

The chains behind the UniProt entries cited, without tags or fusion partners. Residues count along the entry.
UniProt P14779, 2-1049 with the stated changes: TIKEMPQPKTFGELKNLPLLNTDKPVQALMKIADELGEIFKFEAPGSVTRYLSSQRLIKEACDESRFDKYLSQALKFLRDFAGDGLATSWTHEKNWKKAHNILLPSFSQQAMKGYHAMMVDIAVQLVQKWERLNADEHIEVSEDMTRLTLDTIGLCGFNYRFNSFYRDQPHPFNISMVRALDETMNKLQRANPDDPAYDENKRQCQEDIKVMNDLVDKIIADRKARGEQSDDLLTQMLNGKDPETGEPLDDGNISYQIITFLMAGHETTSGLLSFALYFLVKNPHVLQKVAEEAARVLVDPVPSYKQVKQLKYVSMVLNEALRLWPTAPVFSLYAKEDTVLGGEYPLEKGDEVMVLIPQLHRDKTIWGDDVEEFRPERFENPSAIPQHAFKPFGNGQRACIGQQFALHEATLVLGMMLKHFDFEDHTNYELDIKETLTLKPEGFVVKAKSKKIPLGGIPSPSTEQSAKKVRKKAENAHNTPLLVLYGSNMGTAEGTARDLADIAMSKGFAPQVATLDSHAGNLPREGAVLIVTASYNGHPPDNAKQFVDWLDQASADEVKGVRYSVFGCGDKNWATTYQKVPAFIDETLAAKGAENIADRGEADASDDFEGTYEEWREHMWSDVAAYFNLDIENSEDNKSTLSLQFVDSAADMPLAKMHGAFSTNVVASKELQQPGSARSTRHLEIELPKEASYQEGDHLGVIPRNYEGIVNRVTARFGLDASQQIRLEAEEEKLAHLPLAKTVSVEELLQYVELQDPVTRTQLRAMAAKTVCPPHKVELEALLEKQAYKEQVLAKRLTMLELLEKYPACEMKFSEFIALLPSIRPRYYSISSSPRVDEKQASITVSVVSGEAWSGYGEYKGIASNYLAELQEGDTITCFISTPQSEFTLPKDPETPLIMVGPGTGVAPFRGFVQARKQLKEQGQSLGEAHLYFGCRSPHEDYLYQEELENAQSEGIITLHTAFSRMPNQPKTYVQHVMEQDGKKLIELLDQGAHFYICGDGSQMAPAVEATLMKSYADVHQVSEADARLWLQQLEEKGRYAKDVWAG

For the compound `CC(C)c1ccc(C(C)C)c(S(=O)(=O)N=[N+]=[N-])c1` [azide 5, 2,5-diisopropylbenzenesulfonyl azide], binding was put at a Kd of 1500 nM.
